From patent US8722887B2, “Sulfonylpyrazole and sulfonylpyrazoline carboxamidine derivatives as 5-HT6 antagonists” (Abbvie Bahamas, Ltd., priority 2006, dated 2014) come the findings set out here.

Protein sequences, listed by entry. Tags and fused reporters are not part of them.
UniProt P50406, whole entry: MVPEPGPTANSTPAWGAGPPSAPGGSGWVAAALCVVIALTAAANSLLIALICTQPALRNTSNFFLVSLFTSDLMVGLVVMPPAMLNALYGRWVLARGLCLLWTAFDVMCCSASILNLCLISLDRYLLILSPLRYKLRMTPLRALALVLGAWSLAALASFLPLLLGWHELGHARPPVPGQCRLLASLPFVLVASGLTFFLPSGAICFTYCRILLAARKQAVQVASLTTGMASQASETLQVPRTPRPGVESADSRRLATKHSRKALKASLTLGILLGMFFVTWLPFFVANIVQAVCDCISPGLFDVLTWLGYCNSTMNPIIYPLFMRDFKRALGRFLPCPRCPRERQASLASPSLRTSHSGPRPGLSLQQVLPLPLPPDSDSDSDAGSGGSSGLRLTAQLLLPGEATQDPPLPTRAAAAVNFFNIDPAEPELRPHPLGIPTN

Usually Ki stands for a measure of affinity in units of concentration, obtained from inhibition or displacement. As a reminder, the Kb is the equilibrium dissociation constant of an antagonist, usually derived from a functional assay.

Where two headings read alike, the source gives them in different places.

The target in assay [1] is T1, 5-HT6 receptor (Homo sapiens, UniProt P50406). Description: In vitro affinity for human 5-HT6 receptors, [3H]-LSD binding in CHO cell membranes. Also noted: host or cells: CHO/Gα16/mtAEQ/h5HT6-A1 (CHO AequoScreen recombinant cell line). The settings on record: 5-HT6 pKi.
The target of assay [2] is T1, 5-HT6 receptor. Description: In vitro functional activity (antagonism) on human 5-HT6 receptors, CHO-human-5HT6-Aequorin assay. On the set-up: host or cells: CHO/Gα16/mtAEQ/h5HT6-A1 (CHO AequoScreen recombinant cell line). The assay is classed as cell-based.
Setting [3] is: 5-HT6 pA2, antagonism of 10^-8 M α-methylserotonin induced luminescence, CHO-human-5HT6-Aequorin cells.

As for `CCN/C(=N\S(=O)(=O)c1ccc(Cl)s1)N1CC(CC)C=N1` (single isomer, unassigned; (+)) [(+)-82], the Ki in assay [1] was 2.51 nM. Further, in assay [2] (setting [3]), the Kb was 0.794 nM.

With `CCN/C(=N\S(=O)(=O)c1cccc(F)c1)N1CC(CC)C=N1` (stereo not shown) [compound 25], the Ki in assay [1] was 15.8 nM. Further, in assay [2] (setting [3]), the Kb was 10 nM. As to `CCN/C(=N\S(=O)(=O)c1ccccc1)N1CC(C)(C)C=N1` [compound 175], in assay [2], the Kb was 158 nM. Take `CCN/C(=N\S(=O)(=O)c1ccc(Cl)s1)N1CC(CC)C=N1` (single isomer, unassigned; (-)) [(−)-82]: in assay [1], the Ki was 10 nM. For the same compound, the Kb in assay [2] (setting [3]) is 2 nM.
